Assays:
MC3T3-E1 cells = experiment: RT-PCR verification of gene expression in MC3T3-E1 cells; format: cell-based, mouse; conditions: 200 μM peptide D (acetate) or 150 ng/ml BMP-2
Description: Total RNA of each gene collected in Example 22 (2 μg) was subjected to RT-PCR. RT-PCR was performed using the ThermoScript RT-PCR System (Invitrogen) and random primers.
After cDNA synthesis, PCR was performed using primers specific to mouse alkaline phosphatase (mALP), mouse type I collagen al (mColI), and mouse osteocalcin (mOC). For standardization, PCR was performed using primers specific to mouse GAPDH. The used PCR primer sequences are shown below. PCR was performed using Ex Taq™ Hot Start Version (Takara Bio Inc., Shiga, Japan) under the following conditions. Alkaline phosphatase (mALP) was subjected to initial thermal denaturation at 95° C. for 3 minutes, followed by 28 cycles of 95° C. for 10 seconds, 60° C. for 15 seconds, and 68° C. for 1 minute and an elongation reaction at 68° C. for 10 minutes. Type I collagen α1 (mColI) was subjected to initial thermal denaturation at 93° C. for 3 minutes, followed by 20 cycles of 94° C. for 30 seconds, 58° C. for 30 seconds, and 72° C. for 15 seconds and an elongation reaction at 72° C. for 10 minutes. Osteocalcin (mOC) was subjected to initial thermal denaturation at 95° C. for 3 minutes, followed by 28 and 30 cycles of 94° C. for 30 seconds, 58° C. for 30 seconds, and 72° C. for 15 seconds and an elongation reaction at 72° C. for 10 minutes. […]

[1] = system: RANKL knock-down MC3T3-E1 cells; experiment: ALP activity in RANKL knock-down MC3T3-E1 cells; format: cell-based, mouse; conditions: KD1 and KD2; 200 μM peptide D or 200 ng/ml BMP-2; 5 days
Description: In this regard, the RANKL expression levels in C2C12 cells were confirmed to increase upon the addition of BMP-2 (FIG. 35). Then, RANKL knockdown was performed in MC3T3-E1 cells with RNAi stealth in order to examine ALP activity enhancement actions of peptide D and the influence of RANKL knockdown. OPTiMEM (Invitrogen) (20 μL) and RNA-stealth select (tnfrsfl1) (Invitrogen) (1.2 pmol) were gently mixed in each well. After 5 minutes, Lipofectamine RNAiMAX (Invitrogen) (0.2 μL) was added thereto and each resultant was left at room temperature for 20 minutes. Further, MC3T3-E1 cells were seeded in each well (4×10^3 cells), followed by culture in a CO2 incubator for 48 hours. The culture solution was removed therefrom and αMEM containing 200 μM peptide D or 200 ng/ml BMP-2 was added thereto, followed by culture for further 5 days. Then, ALP activity determination was carried out by the method described in Example 1. In addition, for 3 types of RANKL (TNFRSF11) (KD) negative controls, similar experiments were carried out using Stealth RNAi negative universal control (Invitrogen). Cells were recovered in a necessary amount and mRNA was extracted therefrom by the method described in Example 7. Then, RANKL knockdown was confirmed using primers represented by SEQ ID NOS: 17 and 18 by RT-PCR.

B1: BMP-2: BMP-2 (R&D), known bone morphogenetic factor used as positive control (protein, UniProt P12643 283-396, looked up)
Bone morphogenetic protein 2: QAKHKQRKRLKSSCKRHPLYVDFSDVGWNDWIVAPPGYHAFYCHGECPFPLADHLNSTNHAIVQTLVNSVNSKIPKACCVPTELSAISMLYLDENEKVVLKNYQDMVVEGCGCR
gene expression levels of ALP, Col1 and OC (RT-PCR) (MC3T3-E1 cells): significant increases in the gene expression levels | ALP activity enhancement under RANKL knockdown [1]: not influenced by RANKL knockdown

Source: patent US20100260680A1, “NOVEL BONE MASS INCREASING AGENT” (ORIENTAL YEAST CO., LTD., priority 2007, published 2010)
